These are literature values, as cited in patent publication US20040254238A1, “Bone growth stimulation with NO/statin and other NO modulating combinations” (OSTEOSCREEN, priority 2003, published 2004).

This data set has as its system rats. Particulars: injected locally into the subcutaneous tissues of rats; Wozney 1992; cited from earlier work.

B1: BMP-2: recombinant bone morphogenic protein (protein, UniProt P12643 283-396, looked up)
Bone morphogenetic protein 2: QAKHKQRKRLKSSCKRHPLYVDFSDVGWNDWIVAPPGYHAFYCHGECPFPLADHLNSTNHAIVQTLVNSVNSKIPKACCVPTELSAISMLYLDENEKVVLKNYQDMVVEGCGCR
On to B1, for which the new bone formation entry is reported as “can induce new bone formation”.
